Literature values as cited in article PMC6642186, “Molecular mechanism of setron-mediated inhibition of full-length 5-HT3A receptor” (Nature Communications, 2019).

Tested on: human 5-HT3AR with mutations at the Arg65 position
Design: method as in PMID 28137449
Details: cited from earlier work

CN1C2CCCC1CC(NC(=O)c1nn(C)c3ccccc13)C2 (stereo not shown) [granisetron]
effect of mutations at the Arg65 position on binding: abolish granisetron binding
